Data reported in PubChem BioAssay AID736 (The Scripps Research Institute Molecular Screening Center, 2007).
The entries are a selection whose mix differs from that of the whole data set. Some of these compounds have results that are not shown, active ones among them. Calls of active or inactive are those of the source. Rule as the data show it: active = inhibition above about 45%; inactive = the rest.

Chains of the proteins cited; added tags and fusions are not shown.
UniProt O95136, whole entry: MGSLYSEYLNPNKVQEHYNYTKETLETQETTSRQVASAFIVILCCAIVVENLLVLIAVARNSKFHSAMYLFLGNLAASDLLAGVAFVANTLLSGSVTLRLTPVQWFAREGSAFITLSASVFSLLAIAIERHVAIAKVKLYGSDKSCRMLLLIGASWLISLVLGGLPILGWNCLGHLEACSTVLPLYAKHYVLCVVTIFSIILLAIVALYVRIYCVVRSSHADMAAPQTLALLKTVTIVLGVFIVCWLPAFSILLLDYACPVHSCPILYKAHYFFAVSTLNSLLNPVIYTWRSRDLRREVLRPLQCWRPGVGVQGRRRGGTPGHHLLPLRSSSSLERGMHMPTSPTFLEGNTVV

target: Sphingosine 1-phosphate receptor 2 (Homo sapiens) (UniProt O95136); test: blockers of S1P2 receptor signalling – cell-based, primary screen (AID 736); settings: cell-based S1P2 antagonist assay, at 5 µM, hits give high values;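 also: CRE beta-lactamase reporter cells expressing human S1P2 stimulated with S1P; 0% = agonist at EC80 alone and 100% = agonist plus reference antagonist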

| SMILES | inhibition |
| --- | --- |
| CC(C)N1C(=O)CC2(CCN(CCOC(=O)C(O)(c3ccccc3)c3ccccc3)CC2)C1=O | inactive: 16.2% |
| CN(C)c1cccc(C(=O)NCC2(N(C)C)CCCCC2)c1 | inactive: 14.4% |
| O=C(OC1CN2CCC1CC2)C(CO)(c1ccccc1)c1ccccc1 (stereo not drawn) | inactive: -10.4% |
